The values below are quoted from earlier work in patent publication US20040253307A1.

Some compounds may have been tested in ways that are not shown here.

For this data set the following is noted: dependence on pH.

As for `CCC(=O)N(c1ccccc1)C1CCN(CCc2ccccc2)CC1`, the aqueous solubility entry is “decreases sharply at a pH above 6”.
